Data: the NIST ThermoML archive (doi:10.1021/je8000975)

Details: Liquid; for speed of sound: Sing-around technique in a fixed-path interferometer

CCCCOCCCC [dibutyl ether]
Details	mass density [kg/m3]	speed of sound [m/s]
293.15 K	768.468	1181.8
298.15 K	764.17	1161.2
303.15 K	759.829	1142.1
